Read-outs that look alike come from different tables or passages of the source.
Assays:
Assay in all cases: biochemical
Format in all cases: binding
DRB1*0701 = DRB1*0701 (Homo sapiens, UniProt P01903+P01911, A100R/A102G/A103Q/D57E/D86V/E43K/F76Y/K127E/L162R/M171V/P40G/Q125H/Q99D/R33Q/R42Y/R54Q/S133A/S66F/T210M/V115G/Y107V/Y59L/Y89S)
DRB1*1101 = DRB1*1101 (Homo sapiens, UniProt P01903+P01911, A100R/A169T/A87E/I96F/K41T/L162R/M171V/P40S/Q125H/Q178H/Q39Y/Q99D/R42S/S66Y/T262R/V115G/W38E)
DRB1*0901 = DRB1*0901 (Homo sapiens, UniProt P01903+P01911, A100R/A103E/D57H/D86V/F55Y/F60I/F76Y/I96F/K127E/L162R/M171V/P40D/Q125H/Q99R/R33Q/R42F/S133A/S66N/T210M/V115G/W38K/Y107V/Y59G/Y89S)
DRB1*0301 = DRB1*0301 (Homo sapiens, UniProt P01903+P01911, A100K/A102G/A103R/A169T/F55Y/I96L/K41T/L162R/M171V/P40S/Q125H/Q178H/Q39Y/R42S/S66N/T106N/T262R/W38E/Y61H)
DRB1*1501 = DRB1*1501 (Homo sapiens, UniProt P01903+P01911)
DRB1*1302 = DRB1*1302 (Homo sapiens, UniProt P01903+P01911, A100E/A169T/K41T/L162R/M171V/P40S/Q125H/Q178H/Q39Y/Q99D/R42S/S66N/T262R/V115G/W38E/Y61H)
DRB1*0802 = DRB1*0802 (Homo sapiens, UniProt P01903+P01911, A100R/A103L/A169T/F76Y/H45Y/I96F/K41T/L162R/M171V/P40S/Q125H/Q178H/Q39Y/Q99D/R218S/R42G/S66Y/V115G/W38E)
DRB1*0405 = DRB1*0405 (Homo sapiens, UniProt P01903+P01911, A100R/A169T/D86S/F76Y/I96L/K127E/L162R/M171V/N62H/P40V/Q125Y/R42H/S133A/S149N/S66Y/V115G/V209L/W38E)
DRB1*0404 = DRB1*0404 (Homo sapiens, UniProt P01903+P01911, A100R/A169T/F76Y/I96L/K127E/L162R/M171V/N62H/P40V/Q125Y/R42H/S133A/S149N/S66Y/V209L/W38E)

With `CC[C@H](C)[C@H](NC(=O)[C@H](CCC(N)=O)NC(=O)[C@@H](N)CCCCN)C(=O)N[C@@H](C)C(=O)N[C@@H](CC(N)=O)C(=O)N[C@@H](CCC(=O)O)C(=O)N[C@@H](CC(C)C)C(=O)N[C@@H](CC(N)=O)C(=O)N[C@@H](Cc1ccc(O)cc1)C(=O)N[C@H](C(=O)N[C@@H](CC(C)C)C(=O)N[C@@H](Cc1c[nH]c2ccccc12)C(=O)N[C@@H](CCC(=O)O)C(=O)N[C@@H](CC(N)=O)C(=O)N[C@@H](CC(N)=O)C(=O)O)[C@@H](C)CC` [NS1 69-83] the IC50 (DRB1*0701) was 4480 nM, the IC50 (DRB1*1101) was 19000 nM and the IC50 (DRB1*0901) was 2410 nM.

In the case of `CC[C@H](C)[C@H](NC(=O)[C@H](CC(C)C)NC(=O)[C@H](CO)NC(=O)[C@H](C)NC(=O)[C@H](CCCCN)NC(=O)[C@H](CCC(=O)O)NC(=O)[C@H](CC(C)C)NC(=O)[C@H](CCCCN)NC(=O)[C@H](Cc1c[nH]c2ccccc12)NC(=O)[C@@H](N)CO)C(=O)N[C@@H](CCC(=O)O)C(=O)N[C@H](C(=O)N[C@@H](CCCCN)C(=O)N[C@H](C(=O)N[C@@H](CS)C(=O)O)[C@@H](C)O)C(C)C` [NS1 209-223], the IC50 (DRB1*0701) is reported as 376 nM, the IC50 (DRB1*0301) is reported as 2540 nM and the IC50 (DRB1*1501) is reported as 3500 nM. The IC50 (DRB1*1302) was 3780 nM, the IC50 (DRB1*0802) was 4120 nM and the IC50 (DRB1*0405) was 4410 nM.

With `CC[C@H](C)[C@H](NC(=O)[C@H](CO)NC(=O)[C@H](C)N)C(=O)N[C@@H](C)C(=O)N[C@@H](C)C(=O)N[C@@H](CCCNC(=N)N)C(=O)NCC(=O)N[C@@H](Cc1ccc(O)cc1)C(=O)N[C@H](C(=O)N[C@@H](CO)C(=O)N[C@H](C(=O)N[C@@H](CCCNC(=N)N)C(=O)N[C@H](C(=O)NCC(=O)N[C@@H](CCSC)C(=O)O)C(C)C)[C@@H](C)O)[C@@H](C)CC` [NS3 293-307] the IC50 (DRB1*0301) was 12100 nM, the IC50 (DRB1*0404) was 1070 nM and the IC50 (DRB1*0802) was 8130 nM.

`CC[C@H](C)[C@H](NC(=O)[C@H](CS)NC(=O)[C@H](Cc1ccccc1)NC(=O)[C@H](CCC(N)=O)NC(=O)[C@@H](N)CC(N)=O)C(=O)N[C@@H](CCCCN)C(=O)N[C@H](C(=O)N[C@@H](CC(C)C)C(=O)N[C@@H](CC(N)=O)C(=O)N1CCC[C@H]1C(=O)N[C@@H](Cc1ccc(O)cc1)C(=O)N[C@@H](CCSC)C(=O)N1CCC[C@H]1C(=O)N[C@H](C(=O)N[C@H](C(=O)N[C@H](C(=O)N[C@@H](CCC(=O)O)C(=O)O)[C@@H](C)CC)C(C)C)[C@@H](C)O)C(C)C` [NS5 175-191] showed an IC50 (DRB1*0701) of 6850 nM, an IC50 (DRB1*0301) of 2080 nM and an IC50 (DRB1*1101) of 6170 nM. The IC50 (DRB1*1302) was 8230 nM, the IC50 (DRB1*0901) was 5870 nM and the IC50 (DRB1*0802) was 16100 nM.

`CC[C@H](C)[C@H](NC(=O)[C@H](CCCNC(=N)N)NC(=O)[C@H](CCCCN)NC(=O)[C@@H](NC(=O)[C@H](CCCNC(=N)N)NC(=O)[C@H](CCC(=O)O)NC(=O)CNC(=O)[C@@H](NC(=O)[C@@H](NC(=O)[C@H](CC(=O)O)NC(=O)[C@H](CCSC)NC(=O)[C@H](CC(N)=O)NC(=O)[C@@H]1CCCN1C(=O)[C@@H](NC(=O)[C@H](CCC(=O)O)NC(=O)[C@@H]1CCCN1)[C@@H](C)O)C(C)C)[C@@H](C)CC)[C@@H](C)CC)C(=O)N[C@@H](CCCCN)C(=O)O` [NS5 268-284] gave an IC50 (DRB1*0701) of 1000 nM, an IC50 (DRB1*1501) of 1820 nM and an IC50 (DRB1*1302) of 338 nM. The IC50 (DRB1*0901) was 8240 nM.

With `CSCC[C@H](NC(=O)[C@H](C)NC(=O)[C@H](CCSC)NC(=O)[C@H](CCC(N)=O)NC(=O)[C@@H](NC(=O)[C@@H](NC(=O)[C@@H](N)CCSC)C(C)C)[C@@H](C)O)C(=O)N[C@H](C(=O)N[C@@H](CC(=O)O)C(=O)N[C@H](C(=O)N[C@H](C(=O)N1CCC[C@H]1C(=O)N[C@@H](Cc1ccccc1)C(=O)NCC(=O)N[C@@H](CCC(N)=O)C(=O)N[C@@H](CCC(N)=O)C(=O)N[C@@H](CCCNC(=N)N)C(=O)O)[C@@H](C)O)[C@@H](C)O)[C@@H](C)O` [NS5 336-352] the IC50 (DRB1*1101) was 3130 nM, the IC50 (DRB1*1501) was 2200 nM and the IC50 (DRB1*0802) was 121 nM.

With `CSCC[C@H](NC(=O)[C@H](CCSC)NC(=O)[C@H](CC(N)=O)NC(=O)[C@H](Cc1ccc(O)cc1)NC(=O)[C@@H](NC(=O)[C@H](CS)NC(=O)[C@H](CO)NC(=O)CN)C(C)C)C(=O)NCC(=O)N[C@@H](CCCCN)C(=O)N[C@@H](CCCNC(=N)N)C(=O)N[C@@H](CCC(=O)O)C(=O)N[C@@H](CCCCN)C(=O)N[C@@H](CCCCN)C(=O)N[C@@H](CC(C)C)C(=O)NCC(=O)N[C@@H](CCC(=O)O)C(=O)O` [NS5 447-463] the IC50 (DRB1*0701) was 2870 nM, the IC50 (DRB1*0301) was 1260 nM and the IC50 (DRB1*1501) was 1250 nM. For the same compound, the IC50 (DRB1*1302) was 5450 nM, the IC50 (DRB1*0901) was 2610 nM and the IC50 (DRB1*0802) was 412 nM. For the same compound, the IC50 (DRB1*0405) was 1370 nM.

For `CC[C@H](C)[C@H](NC(=O)[C@H](Cc1ccc(O)cc1)NC(=O)CNC(=O)[C@H](CC(C)C)NC(=O)[C@H](CCCCN)NC(=O)[C@H](Cc1c[nH]cn1)NC(=O)[C@@H](N)CC(C)C)C(=O)N[C@@H](CC(C)C)C(=O)N[C@@H](CCCNC(=N)N)C(=O)N[C@@H](CC(=O)O)C(=O)N[C@H](C(=O)N[C@@H](CO)C(=O)N[C@@H](CCCCN)C(=O)N[C@H](C(=O)N1CCC[C@H]1C(=O)NCC(=O)NCC(=O)O)[C@@H](C)CC)[C@@H](C)CC` [NS5 511-527], the IC50 (DRB1*0701) was 705 nM, the IC50 (DRB1*0404) was 2270 nM and the IC50 (DRB1*0901) was 3880 nM.

Work on `CC[C@H](C)[C@H](NC(=O)[C@@H](N)CCCCN)C(=O)N1CCC[C@H]1C(=O)NCC(=O)NCC(=O)N[C@@H](C)C(=O)N[C@@H](CCSC)C(=O)N[C@@H](Cc1ccc(O)cc1)C(=O)N[C@@H](C)C(=O)N[C@@H](CC(=O)O)C(=O)N[C@@H](CC(=O)O)C(=O)N[C@H](C(=O)N[C@@H](C)C(=O)NCC(=O)N[C@@H](Cc1c[nH]c2ccccc12)C(=O)N[C@@H](CC(=O)O)C(=O)N[C@H](C(=O)O)[C@@H](C)O)[C@@H](C)O` [NS5 523-539] yielded an IC50 (DRB1*1101) of 170 nM.

In the case of `CC(C)C[C@H](N)C(=O)N[C@H](C(=O)N[C@@H](Cc1ccc(O)cc1)C(=O)N[C@@H](CCC(N)=O)C(=O)N[C@@H](CC(N)=O)C(=O)N[C@@H](CCCCN)C(=O)N[C@H](C(=O)N[C@H](C(=O)N[C@@H](CCCCN)C(=O)N[C@H](C(=O)N[C@@H](CCC(N)=O)C(=O)N[C@@H](CCCNC(=N)N)C(=O)N1CCC[C@H]1C(=O)N[C@H](C(=O)N1CCC[C@H]1C(=O)N[C@@H](CCCCN)C(=O)NCC(=O)O)[C@@H](C)O)C(C)C)C(C)C)C(C)C)[C@@H](C)O` [NS5 570-586], the IC50 (DRB1*0301) is reported as 2560 nM, the IC50 (DRB1*0404) is reported as 1240 nM and the IC50 (DRB1*0901) is reported as 1340 nM. It also gave an IC50 (DRB1*0802) of 1240 nM.

`CC[C@H](C)[C@H](NC(=O)[C@H](C)NC(=O)[C@H](CCSC)NC(=O)[C@H](CCCNC(=N)N)NC(=O)[C@H](CCCCN)NC(=O)[C@H](CC(C)C)NC(=O)[C@H](CCCNC(=N)N)NC(=O)[C@H](CCC(=O)O)NC(=O)[C@@H](N)C(C)C)C(=O)N[C@@H](CO)C(=O)NCC(=O)N[C@@H](CC(=O)O)C(=O)N[C@@H](CC(=O)O)C(=O)N[C@@H](CS)C(=O)N[C@H](C(=O)N[C@H](C(=O)N[C@@H](CCCCN)C(=O)O)C(C)C)C(C)C` [NS5 652-668] showed an IC50 (DRB1*0301) of 335 nM, an IC50 (DRB1*1501) of 558 nM and an IC50 (DRB1*0901) of 1270 nM. For the same compound, the IC50 (DRB1*0802) was 1410 nM.

`CC[C@H](C)[C@H](N)C(=O)N[C@@H](CC(=O)O)C(=O)N[C@@H](CC(=O)O)C(=O)N[C@@H](CCCNC(=N)N)C(=O)N[C@@H](Cc1ccccc1)C(=O)N[C@@H](C)C(=O)N[C@@H](CC(N)=O)C(=O)N[C@@H](C)C(=O)N[C@@H](CC(C)C)C(=O)N[C@@H](CC(C)C)C(=O)N[C@@H](C)C(=O)N[C@@H](CC(C)C)C(=O)N[C@@H](CC(N)=O)C(=O)N[C@@H](CC(=O)O)C(=O)N[C@@H](CCSC)C(=O)NCC(=O)N[C@@H](CCCCN)C(=O)O` [NS5 670-686] showed an IC50 (DRB1*0701) of 2220 nM, an IC50 (DRB1*0301) of 8490 nM and an IC50 (DRB1*1302; competitive inhibition of radiolabeled standard peptide, DRB1*1302, read-out: Binding Affinity (nM) DRB1*1302) of 2080 nM. The IC50 (DRB1*0901; competitive inhibition of radiolabeled standard peptide, DRB1*0901, read-out: Binding Affinity (nM) DRB1*0901) was 1990 nM.

Compound `CC[C@H](C)[C@H](NC(=O)[C@H](CC(C)C)NC(=O)[C@H](CCC(=O)O)NC(=O)[C@H](Cc1c[nH]cn1)NC(=O)[C@H](Cc1ccccc1)NC(=O)[C@H](Cc1c[nH]cn1)NC(=O)[C@H](Cc1c[nH]cn1)NC(=O)[C@H](CO)NC(=O)[C@H](CS)NC(=O)[C@H](Cc1ccccc1)NC(=O)[C@@H]1CCCN1C(=O)[C@@H](NC(=O)[C@H](CCC(N)=O)NC(=O)[C@H](CCC(N)=O)NC(=O)[C@H](Cc1c[nH]c2ccccc12)NC(=O)[C@@H](N)CC(=O)O)C(C)C)C(=O)N[C@@H](CCSC)C(=O)O` [NS5 702-718] has an IC50 (DRB1*0301) of 3170 nM, an IC50 (DRB1*1501) of 1290 nM and an IC50 (DRB1*1302) of 4020 nM. For the same compound, the IC50 (DRB1*0901) was 1400 nM and the IC50 (DRB1*0405) was 1930 nM.

— publication PMC3794980, “Identification of Conserved and HLA Promiscuous DENV3 T-Cell Epitopes” (PLoS Neglected Tropical Diseases, 2013)
